Measurements as given in US6805863B2, “Methods of modulating immune coagulation” (Trillium Therapeutics Inc., priority 1997, dated 2004).

Tested on: 125I-prothrombin
Assay: Prothrombin cleavage assay
Assay type: biochemical
Details: FIG. 22
Experimental: To determine if the expressed fusion protein acts as a direct prothrombinase, the prothrombin cleavage assay was performed as previously described (Schwartz et al., 1982). 125I-prothrombin was incubated with High 5 cells, both infected or uninfected with the recombinant virus. Purified mfg12 fusion protein was also studied to determine its ability to cleave prothrombin. Human Factor Xa in the presence of Russell's viper venom (RVV) was used as a positive control. Samples were run on 10% SDS-PAGE and analyzed by autoradiography for 125I-prothrombin and their cleavage products.

For “human factor X: positive control of the prothrombin cleavage assay [reference compound]”, which “cleavage of 125I-prothrombin (SDS-PAGE autoradiography)” value is on record?
The value was “cleavage products corresponding to known derivatives of prothrombin”.
